Measured values taken from patent US10172831B2, “Catalytic scavengers of organophosphates to potentiate butyrylcholinesterase (hBChE) as a catalytic bioscavenger and methods for making and using them” (dated 2019).

Target: OP-hAChE conjugates (Homo sapiens, UniProt P22303)
Assay: Reactivation of OP-hAChE conjugates by 0.67 mM oxime (kobs)
Conditions: cyclosarin-hAChE conjugate

Compound: C=CCCCn1cc[n+](C)c1C=NO.[I-]
- cyclosarin hAChE reactivation rate compared to 2PAM: comparable to 2PAM
